What was measured:
[1] = molecular target: T1, ACTH (MCR-2) receptor endogenous to murine Y1 adrenocortical cells (Mus musculus, UniProt Q64326); experiment: cAMP concentration-response to ACTH-(1-24) in Y1 cells; assay type: cell-based; details: read-out: EC50 of ACTH-(1-24) alone
T1 construct: the ACTH (MCR-2) receptor endogenous to murine Y1 adrenocortical cells; endogenous in cells; host or cells: murine Y1 adrenocortical cells
Method: Peptide concentration-response measurements are made in HEK-293 cells by quantifying cAMP levels using a [8-^3H]-CAMP kit from Amersham. Briefly, cells transfected with MC receptors, plated to confluency in 96-well tissue culture plates, are rinsed for 1 hr with 70% (vol/vol) L-15 medium containing 0.5% bovine serum albumin. […] Cellular debris was separated from extracted samples by centrifugation, 400 μL aliquots of the supernatant lyophilized, and total cAMP content quantified by isotope counting.
Concentration response measurements were made also as described in Example 2, but in Xenopus fibroblasts, COS-7, HEK-293, and Y1 cells.

The chains behind the UniProt entries cited, without tags or fusion partners. Where a name states a change or a piece, a line headed by the entry shows the natural chain unless it says otherwise.
UniProt Q64326: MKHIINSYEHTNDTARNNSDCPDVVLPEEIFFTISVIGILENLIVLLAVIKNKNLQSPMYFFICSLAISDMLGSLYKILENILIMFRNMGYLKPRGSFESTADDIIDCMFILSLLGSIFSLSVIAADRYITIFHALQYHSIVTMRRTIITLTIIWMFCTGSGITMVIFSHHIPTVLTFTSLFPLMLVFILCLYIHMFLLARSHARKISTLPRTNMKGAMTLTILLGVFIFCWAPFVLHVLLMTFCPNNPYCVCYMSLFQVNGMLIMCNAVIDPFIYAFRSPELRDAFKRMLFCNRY
UniProt P41968: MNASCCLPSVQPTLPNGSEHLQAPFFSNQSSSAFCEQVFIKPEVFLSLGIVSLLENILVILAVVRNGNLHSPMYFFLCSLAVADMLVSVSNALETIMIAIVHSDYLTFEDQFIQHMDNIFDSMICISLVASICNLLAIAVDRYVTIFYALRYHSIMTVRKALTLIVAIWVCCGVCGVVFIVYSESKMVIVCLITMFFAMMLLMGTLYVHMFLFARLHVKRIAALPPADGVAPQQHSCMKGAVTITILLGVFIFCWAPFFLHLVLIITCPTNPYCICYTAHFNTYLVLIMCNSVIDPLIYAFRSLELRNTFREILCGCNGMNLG

MCR-3 = MCR-3 (Homo sapiens, UniProt P41968); experiment: cAMP concentration-response to α-MSH in HEK-293 cells transfected with human MCR-3; assay type: cell-based; design: expressed in transfected cells; details: read-out: EC50 for α-MSH alone, Example 3
Description: A second method for studying MCR antagonists is to use mammalian cells stably transfected with the cDNA for various human MCR. These transfected cells manifest an increased CAMP response to α-MSH stimulation and agents which antagonize MCR will block this stimulating effect of α-MSH. The inhibitory effects of antagonists can be quantified by the change in the effective concentration (EC50) of α-MSH i the presence of antagonist, or by computation of Ki value by a Schild regression analysis.
Peptide concentration-response measurements are made in HEK-293 cells by quantifying cAMP levels using a [8-^3H]-CAMP kit from Amersham. Briefly, cells transfected with MC receptors, plated to confluency in 96-well tissue culture plates, are rinsed for 1 hr with 70% (vol/vol) L-15 medium containing 0.5% bovine serum albumin. After a 30 min exposure to test ligands, HEK-293 cells are rinsed twice with ice-cold 70% phosphate-buffered saline (0.07 g/L CaCl2, 0.07 g/L MgCl2.6H2O, 0.14 g/L KH2PO4, 1.51 g/L Na2HPO4.7H2O, 0.14 g/L KCl, 5.6 g/L NaCl, pH 7.4), and intracellular CAMP extracted with 1 mL of 60% (vol/vol) ethanol. Cellular debris was separated from extracted samples by centrifugation, 400 μL aliquots of the supernatant lyophilized, and total cAMP content quantified by isotope counting.
HEK-293 cells were maintained and transfected As described in Example 2. […]

Row | Substance | EC50 [1] [nM] | EC50 (MCR-3) [nM]
1 | ACTH-(1-24) | 1.8 ± 1.2 | –
2 | α-MSH | – | 4.2 ± 2.1

— patent publication US6953779B2, “Melanocortin receptor antagonists and modulations of melanocortin receptor activity” (The Regents of the University of California, priority 1998, dated 2005)
